Measured affinities in a library of Ab-14 heavy chain variants

From the AlphaSeq antibody data of Engelhart et al. 2022 (doi:10.1038/s41597-022-01779-4), copy in the FLAb collection.

Target: peptide PDVDLGDISGINAS, taken from heptad repeat 2 (HR2) of SARS-CoV-2 spike.

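The parent was found by panning a naive human phage display library on the peptide. AAYL49 was designed without a model: most single CDR substitutions and a random sample of double and triple ones. The scFvs were displayed on barcoded MATa yeast, the peptide on MATalpha yeast. The frequency of each diploid, read from paired DNA barcodes, reflects how well the two displayed proteins bind. Read counts were normalised to the haploid input and turned into Kd by a linear fit to BCL2-family pairs of known affinity, for each replicate. There are three technical replicates.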

Parent scFv Ab-14: VH joined to VL by a (GGGGS)3 linker. Changes lie in the heavy chain CDRs alone.
VH: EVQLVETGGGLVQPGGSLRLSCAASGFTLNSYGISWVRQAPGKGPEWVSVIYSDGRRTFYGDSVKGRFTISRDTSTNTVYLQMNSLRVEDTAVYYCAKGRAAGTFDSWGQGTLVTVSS
VL: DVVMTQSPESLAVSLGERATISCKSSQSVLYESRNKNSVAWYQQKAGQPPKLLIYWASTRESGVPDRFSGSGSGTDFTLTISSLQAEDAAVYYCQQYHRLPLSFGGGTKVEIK

Positions count from residue 1 of the parent VH; V50L puts L in place of V.
Scale: log10 of Kd in nM, estimated from mating counts; low values are strong binders.
Replicates are averaged; those with no signal do not enter the mean.
"nd" means that the variant was in the library but no mating with the target was seen in that replicate; the authors take this as a sign of poor binding, and no number exists.
Empty control strains, which show no peptide, gave a signal in 15% of pairings with library AAYL49; the median was 4.06 and 95% of these signals were weaker than 2.83. No background was subtracted. For each scFv, signals with the empty controls are counted beside the result, with their mean in brackets.
In this assay the parent's reference entry averaged 0.65; its copy inside this library read 4.11 (one replicate of three).

| changes | log10 Kd (nM) by replicate | mean, log10 nM | signal with controls |
|---|---|---|---|
| V50L/A101G/A102Y | nd / nd / nd | nd | 0 of 9 |
| G26A/T28C/G33F | 4.81 / nd / 5.35 | 5.08 | 6 of 9 (4.39) |
| A102P/S107P | 0.64 / 1.08 / 0.95 | 0.89 | 3 of 9 (4.81) |
| D54T/G99M/R100M | 5.72 / 3.59 / 5.75 | 5.02 | 9 of 9 (4.71) |
| T28D/S35A/T104D | nd / nd / nd | nd | 0 of 9 |
| F27C/Y60E/D62H | 4.55 / 3.46 / 6.22 | 4.74 | 5 of 9 (4.23) |
| S31I/R57E/A101E | 3.21 / nd / nd | 3.21 | 1 of 9 (2.98) |
| S31L/V64C/F105C | 3.72 / nd / nd | 3.72 | 1 of 9 (3.76) |
| S63M/R100V/T104S | nd / nd / nd | nd | 0 of 9 |
| S35E/R100K/F105W | 1.62 / 2.01 / 2.31 | 1.98 | 2 of 9 (4.81) |
| G26L/L29Y/I51C | 4.33 / nd / nd | 4.33 | 5 of 9 (3.63) |
| F27S/G55S/Y60F | nd / nd / nd | nd | 0 of 9 |
| R57E/G61C/S107N | 4.94 / nd / 5.26 | 5.10 | 3 of 9 (3.97) |
| L29V/G55M/T104I | nd / 4.98 / nd | 4.98 | 1 of 9 (4.81) |
| Y52H/S53C/D62S | nd / nd / nd | nd | 0 of 9 |
| Y32C/R57S/D62E | nd / nd / nd | nd | 0 of 9 |
| S31H/R57C | 4.51 / 3.94 / 6.41 | 4.95 | 3 of 9 (3.73) |
| S35M/R57S/S63R | nd / nd / nd | nd | 3 of 9 (4.40) |
| Y60L/V64W/F105S | nd / nd / nd | nd | 2 of 9 (3.41) |
| V50H/T58R/K65N | 5.84 / nd / nd | 5.84 | 5 of 9 (4.29) |
| F27V/A101K/T104S | 1.53 / 1.59 / 1.86 | 1.66 | 3 of 9 (4.42) |
| S31E/G33T/Y60A | nd / nd / nd | nd | 1 of 9 (5.78) |
| T28F/S31V/D54I | nd / nd / nd | nd | 0 of 9 |
| Y32D/Y52H/K65A | nd / nd / nd | nd | 3 of 9 (4.19) |
| Y32Q/I51H/F59H | nd / nd / nd | nd | 2 of 9 (3.69) |
| S31F/Y60T/G103F | nd / nd / nd | nd | 1 of 9 (4.67) |
| N30C/Y52I/Y60H | nd / nd / nd | nd | 0 of 9 |
| N30G/V50L/D54I | 3.96 / nd / 3.96 | 3.96 | 2 of 9 (4.74) |
| L29H/R100P/A101Q | nd / nd / nd | nd | 0 of 9 |
| R56W/K65R/A101H | nd / nd / nd | nd | 0 of 9 |
| S63V/V64E/G99E | nd / 3.67 / 3.23 | 3.45 | 2 of 9 (4.29) |
| G55Q/G61T/S107Q | 4.38 / 4.49 / 5.38 | 4.75 | 4 of 9 (4.24) |
| V50A/G55A/R56N | nd / nd / nd | nd | 1 of 9 (3.90) |
| Y32D/D54C/G55D | nd / nd / nd | nd | 3 of 9 (3.59) |
| T28C/G61R/V64G | nd / nd / nd | nd | 1 of 9 (3.09) |
| T28A/I34Q/D54A | nd / nd / nd | nd | 0 of 9 |
| R56D/V64Y/G99T | nd / nd / nd | nd | 0 of 9 |
| Y32A/G55W/S107N | 4.56 / nd / 4.62 | 4.59 | 3 of 9 (4.05) |
| N30R/F59P/A101L | nd / nd / nd | nd | 2 of 9 (4.25) |
| T28P/V64M/A102N | 2.55 / 2.51 / 3.00 | 2.69 | 8 of 9 (4.58) |
| S35N/I51Q/T104S | 4.72 / nd / nd | 4.72 | 2 of 9 (4.08) |
| S31N/T58E/V64R | 3.54 / 5.25 / nd | 4.39 | 4 of 9 (4.20) |
| G26W/N30I/A101L | 2.61 / 1.98 / 2.50 | 2.36 | 1 of 9 (4.44) |
| S31E/G55K/G103C | nd / nd / nd | nd | 0 of 9 |

6 of these entries, quoted again:

| changes | log10 Kd (nM) by replicate | mean, log10 nM | signal with controls |
|---|---|---|---|
| G26L/L29Y/I51C | 4.33 / nd / nd | 4.33 | 5 of 9 (3.63) |
| S31N/T58E/V64R | 3.54 / 5.25 / nd | 4.39 | 4 of 9 (4.20) |
| F27C/Y60E/D62H | 4.55 / 3.46 / 6.22 | 4.74 | 5 of 9 (4.23) |
| S31E/G55K/G103C | nd / nd / nd | nd | 0 of 9 |
| T28F/S31V/D54I | nd / nd / nd | nd | 0 of 9 |
| S35N/I51Q/T104S | 4.72 / nd / nd | 4.72 | 2 of 9 (4.08) |